# Experimental data published in ChEMBL document CHEMBL5726138, “Tricyclic heterocycles as BET protein inhibitors” (2017).
# Target: Bromodomain-containing protein 4 (Homo sapiens, UniProt O60885)
# Test: Inhibitors were first serially diluted in DMSO and added to the plate wells before the addition of other reaction components. […] After plate sealing, the plate was incubated in the dark at room temperature for 75 min. before reading on a PHERAstar FS plate reader (BMG Labtech).
smiles,measurement,value
Cc1noc(C)c1-c1ccc2nc(N3CC[C@@H](O)C3)n3c2c1OC[C@@H]3c1cccnc1,IC50,in the range around 550 nM
